Reference: patent US12667118B2, “Compositions comprising algae and methods of using same for increasing animal product production” (BLUE OCEAN BARNS, priority 2020, dated 2026)

Columns and labels:
dairy cattle [1] = assay: Tolerability limits: intake limits of minerals for dairy cattle; type: in vivo; conditions: at the maximum allowable limit
dairy cattle [2] = conditions: cited from earlier work

Mercury
Intake for a Cow Consuming 20.14 kg DM/day (dairy cattle [1]): 40 mg/day
Maximum Allowable Component Intake Limit per Daily kg of DM Consumption (dairy cattle [2]): 2 mg/kg DMI
